Assays:
Oryctolagus cuniculus [1] = species on record: Oryctolagus cuniculus; assay: Potency index, ratio of BPTU IC50 to test compound IC50 for antagonist activity at P2Y1 receptor in platelet-rich plasma of male Japanese white rabbit assessed as inhibition of ADP-induced cytosolic Ca2+ level pretreated for 5 mins followed by ADP addition by FLUO-4 AM dye based analysis; type: cell-free; conditions: filed as antagonist
Oryctolagus cuniculus [2] = species on record: Oryctolagus cuniculus; assay: Potency index, ratio of HNW001 IC50 to test compound IC50 for antagonist activity at P2Y1 receptor in platelet-rich plasma of male Japanese white rabbit assessed as inhibition of ADP-induced cytosolic Ca2+ level pretreated for 5 mins followed by ADP addition by FLUO-4 AM dye based analysis; type: cell-free; conditions: filed as antagonist

SMILES | Ratio IC50 (Oryctolagus cuniculus [1]) | Ratio IC50 (Oryctolagus cuniculus [2])
N#Cc1cccc(-c2nc(C(F)F)c(C(=O)O)n2OCc2csc(N)n2)c1 | 5.1 | 5.1
N#Cc1cccc(Oc2nc(-c3cccc(C#N)c3)ncc2C(=O)O)c1 | 5.1 | 5.1

From ChEMBL document CHEMBL6182910, “Design, Synthesis, and Biological Evaluation of 4-(Difluoromethyl)-1H-imidazole-5-carboxylic Acids/4-(3-Cyanophenoxy)pyrimidine-5-carboxylic Acids as P2Y1 Receptor Antagonists for Ischemic Stroke Treatment” (J Med Chem, 2025)
